{"source": "patent US20220362299A1", "about": "“ENGINEERED NATURAL KILLER CELLS AND METHODS FOR USING THE SAME IN IMMUNOTHERAPY AND AUTOPHAGY INHIBITON TECHNIQUES” (Purdue Research Foundation, priority 2019, published 2022)", "key": {"[1]": {"tested_on": "GBM43-Luc cells", "assay": "Orthotopic GBM43 (Luc) xenograft model", "format": "in vivo, NSG mice", "details": "CQ systemic, NK cells intracranial", "method": "Additionally, orthotopic GBM xenografts were generated using NSG mice as previously described. Briefly, on day 0, the GBM43 (Luc) cells (1×10^5) were stereotactically implanted into the right forebrain through a digitalized stereotactic delivery system. […] CD73.mCAR-pNK cells were administered once a week for three weeks. Tumor volumes were monitored and recorded using the Spectral Ami Optical imaging system. Body weights of the mice were also recorded during the treatment period. At the end of the treatment, the mice were sacrificed and whole brain tissues from each mouse were harvested for adenosine measurement and IHC/IF analyses.\nImmunohistochemistry (IHC) and immunofluorescence (IF) staining were carried out at the Histology Research Laboratory at the Purdue University College of Veterinary Medicine (West Lafayette, Ind.). […]\nFor intracranial GBM xenografts, the NK cells in tumors were detected through the staining using human NKp46/NCR1 antibody. CCL5 and CXCL10 expression in the tumors were detected through the staining using human CCL5/RANTES antibody and CXCL10 antibody, respectively. CD73 expression in the tumors was detected through the staining using human CD73 antibody.\nIn addition to the foregoing, intratumoral adenosine concentrations were also assessed. […] Adenosine concentrations were determined using an Adenosine Assay Kit according to the manufacturer's directions. […]"}, "[2]": {"tested_on": "GBM", "details": "chronic administration; cited from earlier work"}}}
{"substance": "Chloroquine diphosphate salt [CQ]", "values": [{"measurement": "CQ-dependent toxicity in treated groups", "setting": "[1]", "result": "no observable CQ-dependent toxicity"}, {"measurement": "clinical safety and tolerability", "setting": "[2]", "result": "clinically safe and well-tolerated"}]}
